Assay results as given in US20160297851A1, “BROAD SPECTRUM […]” (priority 2012, published 2016).

Target: truncated wild type E. coli SPase that lacks the N-terminal membrane helices (Δ2-75 variant of E. coli SPase) (Escherichia coli) (UniProt P00803)
Assay: steady-state increase of arylomycin fluorescence (ex 320 nm, em 410 nm) on binding the soluble N-terminally truncated (delta 2-75) wild type E. coli SPase

Substance: arylomycin C16 (peptide)
- EC50 (read off the curve): 2000 nM
